Molecular target: T1, RIP3 (Homo sapiens, UniProt Q9Y572)
T1 construct: purchased DiscoverX (KINOMEscan service); host or cells: E. coli BL21-derived (T7 phage) or HEK293
Assay: KINOMEscan binding assay, RIP3
Conditions: equilibrium dissociation constant, class symbols

Sequences of proteins named here, by UniProt entry; tags and fusion partners are left off. A change or cut given only in a name is not applied to a line headed by its entry.
UniProt Q9Y572: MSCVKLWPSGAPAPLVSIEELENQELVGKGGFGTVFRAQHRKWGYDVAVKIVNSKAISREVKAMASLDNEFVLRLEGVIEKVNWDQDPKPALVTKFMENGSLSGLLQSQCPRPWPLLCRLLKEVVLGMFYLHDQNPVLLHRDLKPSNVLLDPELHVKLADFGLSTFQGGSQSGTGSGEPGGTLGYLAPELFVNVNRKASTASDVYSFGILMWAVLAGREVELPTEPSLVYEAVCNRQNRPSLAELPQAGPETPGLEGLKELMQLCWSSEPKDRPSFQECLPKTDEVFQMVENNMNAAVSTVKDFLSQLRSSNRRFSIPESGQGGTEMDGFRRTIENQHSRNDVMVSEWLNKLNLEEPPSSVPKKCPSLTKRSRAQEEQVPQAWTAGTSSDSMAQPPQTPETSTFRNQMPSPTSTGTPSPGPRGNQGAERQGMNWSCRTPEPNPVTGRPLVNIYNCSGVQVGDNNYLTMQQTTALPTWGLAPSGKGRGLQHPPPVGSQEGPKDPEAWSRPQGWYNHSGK

| Structure (SMILES) | Kd [µM] |
| --- | --- |
| CCS(=O)(=O)Nc1ccc(-c2n[nH]c(Nc3ccnc(C(F)(F)F)c3)c2C(N)=O)cc1 [Compound 104, 3-(4-(ethylsulfonamido)phenyl)-5-((2-(trifluoromethyl)pyridin-4-yl)amino)-1H-pyrazole-4-carboxamide] | > 30 |
| CCS(=O)(=O)Nc1ccc(-c2n[nH]c(Nc3cccc(OC)n3)c2C(N)=O)cc1 [Compound 107, 3-(4-(ethylsulfonamido)phenyl)-5-((6-methoxypyridin-2-yl)amino)-1H-pyrazole-4-carboxamide] | 1 to 30 |
| COCCOc1cc(Nc2[nH]nc(-c3ccc(NS(=O)(=O)C(F)(F)F)cc3)c2C(N)=O)ccn1 [Compound 114, 5-((2-(2-methoxyethoxy)pyridin-4-yl)amino)-3-(4-((trifluoromethyl)sulfonamido)phenyl)-1H-pyrazole-4-carboxamide] | 1 to 30 |
| CCS(=O)(=O)Nc1ccc(-c2n[nH]c(NC)c2C(N)=O)cc1 [Compound 119, 3-(4-(ethylsulfonamido)phenyl)-5-(methylamino)-1H-pyrazole-4-carboxamide] | > 30 |
| COCCOc1cc(Nc2[nH]nc(-c3ccc(NS(C)(=O)=O)cc3)c2C(N)=O)ccn1 [Compound 122, 5-((2-(2-methoxyethoxy)pyridin-4-yl)amino)-3-(4-(methylsulfonamido)phenyl)-1H-pyrazole-4-carboxamide] | 1 to 30 |
| CCS(=O)(=O)Nc1ccc(-c2[nH]nc(Nc3ccnc(OCCOC)c3)c2C(N)=O)cc1 [Compound 127, 5-(4-(ethylsulfonamido)phenyl)-3-((2-(2-methoxyethoxy)pyridin-4-yl)amino)-1H-pyrazole-4-carboxamide] | 1 to 30 |
| NC(=O)c1c(-c2ccc(NS(=O)(=O)Cc3cccc(Cl)c3)cc2)n[nH]c1Nc1ccccn1 [Compound 129, 3-(4-(((3-chlorophenyl)methyl)sulfonamido)phenyl)-5-(pyridin-2-ylamino)-1H-pyrazole-4-carboxamide] | 1 to 30 |
| Cc1ccc(CS(=O)(=O)Nc2ccc(-c3n[nH]c(Nc4ccccn4)c3C(N)=O)cc2)cc1 [Compound 132, 5-(pyridin-2-ylamino)-3-(4-((p-tolylmethyl)sulfonamido)phenyl)-1H-pyrazole-4-carboxamide] | > 30 |
| NC(=O)c1c(-c2ccc(NS(=O)(=O)CC(F)(F)F)cc2)n[nH]c1Nc1cnccn1 [Compound 137, 5-(pyrazin-2-ylamino)-3-(4-((2,2,2-trifluoroethyl)sulfonamido)phenyl)-1H-pyrazole-4-carboxamide] | > 30 |

More lines, now with the values ahead:

| Kd [µM] | Structure (SMILES) |
| --- | --- |
| > 30 | CCS(=O)(=O)Nc1ccc(-c2n[nH]c(Nc3cncc(OC)n3)c2C(N)=O)cc1 [Compound 99, 3-(4-(ethylsulfonamido)phenyl)-5-((6-methoxypyrazin-2-yl)amino)-1H-pyrazole-4-carboxamide] |
| > 30 | CCS(=O)(=O)Nc1ccc(-c2n[nH]c(Nc3cnc(C)cn3)c2C(N)=O)cc1 [Compound 101, 3-(4-(ethylsulfonamido)phenyl)-5-((5-methylpyrazin-2-yl)amino)-1H-pyrazole-4-carboxamide] |
| > 30 | CCS(=O)(=O)Nc1ccc(-c2n[nH]c(Nc3cnccn3)c2C(N)=O)cc1 [Compound 108, 3-(4-(ethylsulfonamido)phenyl)-5-(pyrazin-2-ylamino)-1H-pyrazole-4-carboxamide] |
| > 30 | CCS(=O)(=O)Nc1ccc(-c2n[nH]c(Nc3cc(C)ncc3F)c2C(N)=O)cc1 [Compound 111, 3-(4-(ethylsulfonamido)phenyl)-5-((5-fluoro-2-methylpyridin-4-yl)amino)-1H-pyrazole-4-carboxamide] |
| > 30 | CCS(=O)(=O)Nc1ccc(-c2n[nH]c(Nc3ccnc(C)c3)c2C(N)=O)cc1 [Compound 113, 3-(4-(ethylsulfonamido)phenyl)-5-((2-methylpyridin-4-yl)amino)-1H-pyrazole-4-carboxamide] |
| > 30 | CCS(=O)(=O)Nc1ccc(-c2n[nH]c(Nc3ccnc(OC)n3)c2C(N)=O)cc1 [Compound 123, 3-(4-(ethylsulfonamido)phenyl)-5-((2-methoxypyrimidin-4-yl)amino)-1H-pyrazole-4-carboxamide] |
